IC50 data for 24 compounds are collected here from US8962608B2, “Cycloalkylnitrile pyrazole carboxamides as janus kinase inhibitors” (Merck Sharp & Dohme Corp., priority 2011, dated 2015).

Amino acid sequences for entries named in this document (tags omitted). Residues count along the entry.
UniProt P23458, 875-1153: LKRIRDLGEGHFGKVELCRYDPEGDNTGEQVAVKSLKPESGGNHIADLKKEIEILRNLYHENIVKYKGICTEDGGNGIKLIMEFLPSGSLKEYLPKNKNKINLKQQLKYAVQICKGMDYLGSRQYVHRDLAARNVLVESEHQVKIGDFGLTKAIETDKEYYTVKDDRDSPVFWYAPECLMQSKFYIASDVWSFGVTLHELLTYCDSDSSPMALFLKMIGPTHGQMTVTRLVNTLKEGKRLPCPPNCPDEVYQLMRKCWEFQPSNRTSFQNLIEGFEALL

pIC50: −log10 of the molar value.
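Further: biochemical assay with HTRF read-out.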

The assay deals with JAK1 (recombinant purified GST-tagged catalytic domain) (Homo sapiens (Human), UniProt P23458). Put plainly: biochemical.
Turning to `N#C[C@H]1C[C@@H](N2CC3(CCC3)C2)CC[C@@H]1n1cc(C(N)=O)c(Nc2ccccc2)n1` (single isomer, unassigned) [Example 28-136, 1-[(1S,2S,4S or 1R,2R,4R)-4-(2-azaspiro[3.3]hept-2-yl)-2-cyanocyclohexyl]-3-(phenylamino)-1H-pyrazole-4-carboxamide], the negative-log IC50 (pIC50) – broadly, the negative decadic logarithm of the IC50, by convention in mol/L – was 9.00.
Under `N#C[C@H]1C[C@@H](NC2CC2)CC[C@@H]1n1cc(C(N)=O)c(Nc2ccc(C(F)(F)F)cc2)n1` (single isomer, unassigned) [Example 28-137, 1-[(1S,2S,4S or 1R,2R,4R)-2-cyano-4-(cyclopropylamino)cyclohexyl]-3-{[4-(trifluoromethyl)phenyl]amino}-1H-pyrazole-4-carboxamide] stands 9.05; under `N#C[C@H]1C[C@H](NC2CC2)CC[C@@H]1n1cc(C(N)=O)c(Nc2ccc(C(F)(F)F)cc2)n1` (single isomer, unassigned) [Example 28-139, 1-[(1S,2S,4R or 1R,2R,4R)-2-cyano-4-(cyclopropylamino)cyclohexyl]-3-{[4-(trifluoromethyl)phenyl]amino}-1H-pyrazole-4-carboxamide], 8.30; under `CC1(C)CN([C@H]2CC[C@H](n3cc(C(N)=O)c(Nc4ccc(Cl)cc4)n3)[C@@H](C#N)C2)C1` (single isomer, unassigned) [Example 28-144, 3-[(4-chlorophenyl)amino]-1-[(1S,2S,4S or 1R,2R,4R)-2-cyano-4-(3,3-dimethylazetidin-1-yl)cyclohexyl]-1H-pyrazole-4-carboxamide], 9.00.
Under `CS(=O)(=O)c1ccc(Nc2nn([C@H]3CC[C@@H](N4CC5(CCC5)C4)C[C@@H]3C#N)cc2C(N)=O)cc1` (single isomer, unassigned) [Example 28-145, 1-[(1S,2S,4R or 1R,2R,4S)-4-(2-azaspiro[3.3]hept-2-yl)-2-cyanocyclohexyl]-3-{[4-(methylsulfonyl)phenyl]amino}-1H-pyrazole-4-carboxamide] stands 9.60.
With `N#C[C@H]1CC(N2CCC[C@@H]2CF)CC[C@@H]1n1cc(C(N)=O)c(Nc2ccc(S(=O)(=O)C(F)(F)F)cc2)n1` (single isomer, unassigned) [Example 28-156, 1-{(1S,2S or 1R,2R)-2-cyano-4-[(2R)-2-(fluoromethyl)pyrrolidin-1-yl]cyclohexyl}-3-({4-[(trifluoro-methyl)sulfonyl]phenyl}amino)-1H-pyrazole-4-carboxamide], the pIC50 is 9.00.
Turning to `N#C[C@H]1CC(N2CCC[C@H]2CF)CC[C@@H]1n1cc(C(N)=O)c(Nc2ccc(S(=O)(=O)C(F)(F)F)cc2)n1` (single isomer, unassigned) [Example 28-157, 1-{(1S,2S or 1R,2R)-2-cyano-4-[(2S)-2-(fluoromethyl)pyrrolidin-1-yl]cyclohexyl}-3-({4-[(trifluoro-methyl)sulfonyl]phenyl}amino)-1H-pyrazole-4-carboxamide], the pIC50 is 9.00.
Under `N#C[C@H]1C[C@@H](NCC(F)F)CC[C@@H]1n1cc(C(N)=O)c(Nc2ccc(S(=O)(=O)C(F)(F)F)cc2)n1` (single isomer, unassigned) [Example 28-165, 1-{(1S,2S,4S or 1R,2R,4R)-2-cyano-4-[(2,2-difluoroethyl)amino]cyclohexyl}-3-({4-[(trifluoro-methyl)sulfonyl]phenyl}amino)-1H-pyrazole-4-carboxamide] stands 9.35; under `N#C[C@H]1C[C@@H](NCCC(F)(F)F)CC[C@@H]1n1cc(C(N)=O)c(Nc2ccc(S(=O)(=O)C(F)(F)F)cc2)n1` (single isomer, unassigned) [Example 28-166, 1-{(1S,2S,4S or 1R,2R,4R)-2-cyano-4-[(3,3,3-trifluoro-propyl)amino]cyclohexyl}-3-({4-[(trifluoro-methyl)sulfonyl]phenyl}amino)-1H-pyrazole-4-carboxamide], 8.70.
Turning to `N#C[C@H]1C[C@H](NCCC(F)(F)F)CC[C@@H]1n1cc(C(N)=O)c(Nc2ccc(S(=O)(=O)C(F)(F)F)cc2)n1` (single isomer, unassigned) [Example 28-167, 1-{(1S,2S,4R or 1R,2R,4S)-2-cyano-4-[(3,3,3-trifluoropropyl)amino]cyclo-hexyl}-3-({4-[(trifluoro-methyl)sulfonyl]phenyl}amino)-1H-pyrazole-4-carboxamide], the pIC50 is 8.52.
Take `N#C[C@H]1C[C@@H](N2CCC2)CC[C@@H]1n1cc(C(N)=O)c(Nc2ccc(S(=O)(=O)C(F)(F)F)cc2)n1` (single isomer, unassigned) [Example 28-168, 1-[(1S,2S,4S or 1R,2R,4R)-4-azetidin-1-yl-2-cyano-cyclohexyl]-3-({4-[(trifluoro-methyl)sulfonyl]phenyl}amino)-1H-pyrazole-4-carboxamide]: the pIC50 is 9.82.
Under `N#C[C@H]1C[C@H](N2CCC2)CC[C@@H]1n1cc(C(N)=O)c(Nc2ccc(S(=O)(=O)C(F)(F)F)cc2)n1` (single isomer, unassigned) [Example 28-169, 1-[(1S,2S,4R or 1R,2R,4S)-4-azetidin-1-yl-2-cyanocyclohexyl]-3-({4-[(trifluoromethyl)sulfonyl]phen-yl}amino)-1H-pyrazole-4-carboxamide] stands 9.54; under `N#C[C@H]1C[C@@H](NCC2CC2)CC[C@@H]1n1cc(C(N)=O)c(Nc2ccc(S(=O)(=O)C(F)(F)F)cc2)n1` (single isomer, unassigned) [Example 28-172, 1-{(1S,2S,4S or 1R,2R,4R)-2-cyano-4-[(cyclopropylmethyl)amino]cyclo-hexyl}-3-({4-[(trifluoromethyl)sulfonyl]phen-yl}amino)-1H-pyrazolc-4-carboxamide], 9.70.
As to `N#C[C@H]1C[C@H](NCC2CC2)CC[C@@H]1n1cc(C(N)=O)c(Nc2ccc(S(=O)(=O)C(F)(F)F)cc2)n1` (single isomer, unassigned) [Example 28-173, 1-{(1S,2S,4R or 1R,2R,4S)-2-cyano-4-[(cyclopropyl-methyl)amino]cyclohexyl}-3-({4-[(trifluoro-methyl)sulfonyl]phenyl}amino)-1H-pyrazole-4-carboxamide], the pIC50 is 9.82.
Under `CN(C(C1CC1)C1CC1)[C@H]1CC[C@H](n2cc(C(N)=O)c(Nc3ccc(S(=O)(=O)C(F)(F)F)cc3)n2)[C@@H](C#N)C1` (single isomer, unassigned) [Example 28-178, 1-{(1S,2S,4S or 1R,2R,4R)-2-cyano-4-[(dicyclopropyl-methyl)(methyl)amino]cyclo-hexyl}-3-({4-[(trifluoromethyl)sulfonyl]phen-yl}amino)-1H-pyrazole-4-carboxamide] stands 9.82.
Under `CN(C(C1CC1)C1CC1)[C@@H]1CC[C@H](n2cc(C(N)=O)c(Nc3ccc(S(=O)(=O)C(F)(F)F)cc3)n2)[C@@H](C#N)C1` (single isomer, unassigned) [Example 28-179, 1-{(1S,2S,4R or 1R,2R,4S)-2-cyano-4-[(dicyclopropyl-methyl)(methyl)amino]cyclo-hexyl}-3-({4-[(trifluoromethyl)sulfonyl]phen-yl}amino)-1H-pyrazole-4-carboxamide] stands 8.15.
Under `CN(C)[C@H]1CC[C@H](n2cc(C(N)=O)c(Nc3ccc(C(F)(F)F)cc3)n2)[C@@H](C#N)C1` (single isomer, unassigned) [Example 28-188, 1-[(1S,2S,4S or 1R,2R,4R)-2-cyano-4-(dimethylamino)cyclohexyl]-3-{[4-(trifluoromethyl)phenyl]amino}-1H-pyrazole-4-carboxamide] stands 9.52; under `CN(C)[C@@H]1CC[C@H](n2cc(C(N)=O)c(Nc3ccc(C(F)(F)F)cc3)n2)[C@@H](C#N)C1` (single isomer, unassigned) [Example 28-189, 1-[(1S,2S,4R or 1R,2R,4S)-2-cyano-4-(dimethylamino)cyclohexyl]-3-{[4-(trifluoromethyl)phenyl]amino}-1H-pyrazole-4-carboxamide], 9.46.
Consider `CC1(C)CN([C@H]2CC[C@H](n3cc(C(N)=O)c(Nc4ccc(C(F)(F)F)cc4)n3)[C@@H](C#N)C2)C1` (single isomer, unassigned) [Example 28-202, 1-[(1S,2S,4S or 1R,2R,4R)-2-cyano-4-(3,3-dimethylazetidin-1-yl)cyclohexyl]-3-{[4-(trifluoromethyl)phenyl]amino}-1H-pyrazole-4-carboxamide], for which the pIC50 was 9.12.
Under `CC1(C)CN([C@@H]2CC[C@H](n3cc(C(N)=O)c(Nc4ccc(C(F)(F)F)cc4)n3)[C@@H](C#N)C2)C1` (single isomer, unassigned) [Example 28-203, 1-[(1S,2S,4R or 1R,2R,4S)-2-cyano-4-(3,3-dimethylazetidin-1-yl)cyclohexyl]-3-{[4-(trifluoromethyl)phenyl]amino}-1H-pyrazole-4-carboxamidc] stands 8.70.
Under `CC1(N[C@H]2CCC(n3cc(C(N)=O)c(Nc4ccc(Cl)cc4)n3)[C@@H](C#N)C2)COC1` (single isomer, unassigned) [Example 28-207, 3-[(4-chlorophenyl)amino]-1-{(1S,2S,4S or 1R,2R,4R)-2-cyano-4-[(3-methyloxetan-3-yl)amino]cyclohexyl}-1H-pyrazole-4-carboxamide] stands 9.00; under `CC(C)(N[C@H]1CCC(n2cc(C(N)=O)c(Nc3ccccc3)n2)[C@@H](C#N)C1)C1CC1` (single isomer, unassigned) [Example 28-214, 1-{(1S,2S,4S or 1R,2R,4R)-2-cyano-4-[(1-cyclopropyl-1-methylethyl)amino]cyclohexyl}-3-(phenylamino)-1H-pyrazole-4-carboxamide], 9.00; under `CC(C)(C)N[C@H]1CCC(n2cc(C(N)=O)c(Nc3ccccc3)n2)[C@@H](C#N)C1` (single isomer, unassigned) [Example 28-215, 1-[(1S,2S,4S or 1R,2R,4R)-4-(tert-butylamino)-2-cyanocyclohexyl]-3-(phenylamino)-1H-pyrazole-4-carboxamide], 9.10.
Under `CC1(CN[C@H]2CCC(n3cc(C(N)=O)c(Nc4ccc(Cl)cc4)n3)[C@@H](C#N)C2)COC1` (single isomer, unassigned) [Example 28-217, 3-[(4-chlorophenyl)amino]-1-[(1S,2S,4S or 1R,2R,4R)-2-cyano-4-{[(3-methyloxetan-3-yl)methyl]amino}cyclohexyl]-1H-pyrazole-4-carboxamide] stands 8.70.
